Format in all cases: cell-based, human
In one data set the test system is CCRF-CEM/Taxol. As to the kind of experiment: XTT cytotoxicity assay, taxol-resistant CCRF-CEM/Taxol cells. Particulars: XTT assay following 72 h inhibition; read-out: In vitro Cytotoxicities (IC50) CCRF-CEM/Taxol. How it is done:
(§1) XTT assay following 72 h inhibition. CCRF-CEM is a human T-cell acute lymphoblastic leukemia cell line. The CCRF-CEM/VBL100, CCRF-CEM/VM1, and CCRF-CEM/Taxol cell lines all overexpress P-glycoprotein and display a multidrug resistance phenotype to MDR-associated oncolytics. (Chou et al. Proc. Natl. Acad. Sci. USA 98:8113, 2001; incorporated herein by reference).
(§2) A typical experiment invovles culturing cells (e.g., CCRF-CEM) at an initial density of 2-5×10^4 cells per ml. They are maintained in a 5% CO2-humidified atmosphere at 37° C. in RPMI medium 1640 (GIBCO/BRL) containing penicillin (100 units/ml), streptomycin (100 μg/ml) (GIBCO/BRL), and 5% heat-inactivated fetal bovine serum. For cells that were grown in suspension (such as CCRF-CEM and its sublines), cytotoxicitiy is measured by using the 2,-3-bis(2-methoxy-4-nitro-5-sulfophenyl)-5 carboxanilide)-2H terazodium hydroxide (XTT)-microculture tetrazonium method in duplicate in 96-well microtiter plates. For both methods, the absorbance of each well is measured with a microplate reader (EL-340, Bio-Tek, Burlington, Vt.). Each run entails six or seven concentrations of the tested drugs. Dose-effect relationship data are analyzed with the median-effect plot.
In general terms: Formazan colour is commonly taken as a measure of viable cells.

The test system of the next data set is CCRF-CEM. As to the kind of experiment: XTT cytotoxicity assay, CCRF-CEM cells. The settings on record: XTT assay following 72 h inhibition; read-out: In vitro Cytotoxicities (IC50) CCRF-CEM. How it is done:
as §1
as §2, with “plot. […]” for “plot.”

A further data set concerns CCRF-CEM/VBL100. Kind of data set: XTT cytotoxicity assay, vinblastine-resistant CCRF-CEM/VBL100 cells. The settings on record: XTT assay following 72 h inhibition; read-out: In vitro Cytotoxicities (IC50) CCRF-CEM/VBL100. How it is done: as §1
as §2, with “plot. […]” for “plot.”

Consider “10,11-dehydro-14,15-[18]desoxyepothilone B [[18]ddEpoB]”, for which the IC50 in the data set with CCRF-CEM/Taxol was found to be 508 nM; in the data set with CCRF-CEM, 322 nM; in the data set on CCRF-CEM/VBL100 it was 870 nM.
